Measured values as given in US20130129595A1 (SOLVAY SA, priority 2010, published 2013).

Experiment: Solubility of LiPO2F2, LiF and LiPF6 in organic solvents
Details: for Solubility of LiPO2F2: ambient temperature

In the case of Lithium difluorophosphate, the “Solubility of LiPO2F2” value (in acetone) is reported as 20 g/100 g solvent, the “Solubility of LiPO2F2” value (in acetonitrile) is reported as 2.8 g/100 g solvent and the “Solubility (in words)” value (in aprotic organic solvents) is reported as “in between”. The “Solubility of LiPO2F2” value (in diethyl carbonate) was 0.4 g/100 g solvent, the “Solubility of LiPO2F2” value (in dimethoxyethane) was 37 g/100 g solvent and the “Solubility (in words)” value (in dimethyl carbonate and propylene carbonate) was “at least fairly soluble”. The “Solubility of LiPO2F2” value (in dimethyl carbonate/propylene carbonate (1:1 v/v)) was 0.4 g/100 g solvent and the “Content of LiPO2F2 in solution relative to the total weight of the solution” value (in propylene carbonate, standard conditions (25° C., 1 Bara)) was “up to 3 % by weight”.
